Laboratory results taken from KR20150063728A (dated 2015).

What was measured:
[1] = target: T1, VEGF-C-Fc (#358-MT/CF, R&D Systems); assay: SPR, Biacore T100; bispecific captured by human Fab binder on CM5, VEGF-C-Fc injected
T1 construct: Analyte of the Biacore run as printed; the printed catalogue number may not belong to a VEGF-C product

[2] = target: T2, 인간 Ang2 폴리펩타이드 (Human Ang2; R&D systems; Accession # O15123) (human, UniProt O15123 19-496); assay: kinetic values printed as for Biacore T100; the text describes only an ELISA for Ang2
T2 construct: Bought from R&D Systems; also called hAng2
T2 sequence: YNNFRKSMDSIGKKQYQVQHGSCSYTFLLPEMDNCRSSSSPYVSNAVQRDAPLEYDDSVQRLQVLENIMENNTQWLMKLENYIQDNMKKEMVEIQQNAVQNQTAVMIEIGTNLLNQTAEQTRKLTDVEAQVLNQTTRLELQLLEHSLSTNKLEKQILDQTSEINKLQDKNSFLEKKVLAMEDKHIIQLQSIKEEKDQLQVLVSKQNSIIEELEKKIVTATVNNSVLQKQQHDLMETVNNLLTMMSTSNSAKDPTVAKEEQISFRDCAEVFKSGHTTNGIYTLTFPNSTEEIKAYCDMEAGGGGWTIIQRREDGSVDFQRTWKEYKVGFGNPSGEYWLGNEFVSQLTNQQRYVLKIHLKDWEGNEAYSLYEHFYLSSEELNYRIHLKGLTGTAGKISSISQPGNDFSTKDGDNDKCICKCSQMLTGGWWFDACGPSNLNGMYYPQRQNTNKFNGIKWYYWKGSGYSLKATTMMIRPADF

Kd [1]: 0.358 nM | koff [1]: 0.0014 s⁻¹ | kon [1]: 3.92e+06 M⁻¹ s⁻¹ | Kd [2]: 0.004 nM | koff [2]: 5.41e-06 s⁻¹ | kon [2]: 1.35e+06 M⁻¹ s⁻¹
B1: 항 VEGF-C/항 Ang2 이중 특이 항체 (bispecific antibody)
heavy: EVQLLESGGGLVQPGGSLRLSCAASGFTFSSYDMSWVRQAPGKGLEWVSAISYDNGSTYYADSVKGRFTISRDNSKNTLYLQMNSLRAEDTAVYYCARDPYLARLNTFDYWGQGTLVTVSSASTKGPSVFPLAPCSRSTSESTAALGCLVKDYFPEPVTVSWNSGALTSGVHTFPAVLQSSGLYSLSSVVTVPSSNFGTQTYTCNVDHKPSNTKVDKTVERKCCVECPPCPAPPVAGPSVFLFPPKPKDTLMISRTPEVTCVVVDVSHEDPEVQFNWYVDGVEVHNAKTKPREEQFNSTFRVVSVLTVVHQDWLNGKEYKCKVSNKGLPAPIEKTISKTKGQPREPQVYTLPPSREEMTKNQVSLTCLVKGFYPSDISVEWESNGQPENNYKTTPPMLDSDGSFFLYSKLTVDKSRWQQGNVFSCSVMHEALHNHYTQKSLSLSPGKGGGGSGGGGSEVQLLESGGGLVQPGGSLRLSCAASGFTFSSYDMSWVRLAPGKGLEWVSLISPDSSSIYYADSVKGRFTISRDNSKNTLYLQMNSLRAEDTAVYYCAKDLISFWRGGFDYWGQGTLVTVSSGGGGSGGGGSGSGGSQSVLTQPPSASGTPGQRVTISCSGSSSNIGSNYVNWYQQLPGTAPKLLIYSDSHRPSGVPDRFSGSKSGTSASLAISGLRSEDEADYYCGAWDDSLSGYVFGGGTKLTVLGQ
light: QSVLTQPPSASGTPGQRVTISCSGSSSNIGSNNVSWYQQLPGTAPKLLIYYNSHRPSGVPDRFSGSKSGTSASLAISGLRSEDEADYYCATWDSSLNGYVFGGGTKLTRTVAAPSVFIFPPSDEQLKSGTASVVCLLNNFYPREAKVQWKVDNALQSGNSQESVTEQDSKDSTYSLSSTLTLSKADYEKHKVYACEVTHQGLSSPVTKSFNRGEC
